Data published in patent US9212182B2, “Bicyclic sulfonamide compounds as sodium channel inhibitors” (AMGEN INC., priority 2013, dated 2015).

Protein sequences, listed by entry. Tags and fused reporters are not part of them.
UniProt Q15858, whole entry: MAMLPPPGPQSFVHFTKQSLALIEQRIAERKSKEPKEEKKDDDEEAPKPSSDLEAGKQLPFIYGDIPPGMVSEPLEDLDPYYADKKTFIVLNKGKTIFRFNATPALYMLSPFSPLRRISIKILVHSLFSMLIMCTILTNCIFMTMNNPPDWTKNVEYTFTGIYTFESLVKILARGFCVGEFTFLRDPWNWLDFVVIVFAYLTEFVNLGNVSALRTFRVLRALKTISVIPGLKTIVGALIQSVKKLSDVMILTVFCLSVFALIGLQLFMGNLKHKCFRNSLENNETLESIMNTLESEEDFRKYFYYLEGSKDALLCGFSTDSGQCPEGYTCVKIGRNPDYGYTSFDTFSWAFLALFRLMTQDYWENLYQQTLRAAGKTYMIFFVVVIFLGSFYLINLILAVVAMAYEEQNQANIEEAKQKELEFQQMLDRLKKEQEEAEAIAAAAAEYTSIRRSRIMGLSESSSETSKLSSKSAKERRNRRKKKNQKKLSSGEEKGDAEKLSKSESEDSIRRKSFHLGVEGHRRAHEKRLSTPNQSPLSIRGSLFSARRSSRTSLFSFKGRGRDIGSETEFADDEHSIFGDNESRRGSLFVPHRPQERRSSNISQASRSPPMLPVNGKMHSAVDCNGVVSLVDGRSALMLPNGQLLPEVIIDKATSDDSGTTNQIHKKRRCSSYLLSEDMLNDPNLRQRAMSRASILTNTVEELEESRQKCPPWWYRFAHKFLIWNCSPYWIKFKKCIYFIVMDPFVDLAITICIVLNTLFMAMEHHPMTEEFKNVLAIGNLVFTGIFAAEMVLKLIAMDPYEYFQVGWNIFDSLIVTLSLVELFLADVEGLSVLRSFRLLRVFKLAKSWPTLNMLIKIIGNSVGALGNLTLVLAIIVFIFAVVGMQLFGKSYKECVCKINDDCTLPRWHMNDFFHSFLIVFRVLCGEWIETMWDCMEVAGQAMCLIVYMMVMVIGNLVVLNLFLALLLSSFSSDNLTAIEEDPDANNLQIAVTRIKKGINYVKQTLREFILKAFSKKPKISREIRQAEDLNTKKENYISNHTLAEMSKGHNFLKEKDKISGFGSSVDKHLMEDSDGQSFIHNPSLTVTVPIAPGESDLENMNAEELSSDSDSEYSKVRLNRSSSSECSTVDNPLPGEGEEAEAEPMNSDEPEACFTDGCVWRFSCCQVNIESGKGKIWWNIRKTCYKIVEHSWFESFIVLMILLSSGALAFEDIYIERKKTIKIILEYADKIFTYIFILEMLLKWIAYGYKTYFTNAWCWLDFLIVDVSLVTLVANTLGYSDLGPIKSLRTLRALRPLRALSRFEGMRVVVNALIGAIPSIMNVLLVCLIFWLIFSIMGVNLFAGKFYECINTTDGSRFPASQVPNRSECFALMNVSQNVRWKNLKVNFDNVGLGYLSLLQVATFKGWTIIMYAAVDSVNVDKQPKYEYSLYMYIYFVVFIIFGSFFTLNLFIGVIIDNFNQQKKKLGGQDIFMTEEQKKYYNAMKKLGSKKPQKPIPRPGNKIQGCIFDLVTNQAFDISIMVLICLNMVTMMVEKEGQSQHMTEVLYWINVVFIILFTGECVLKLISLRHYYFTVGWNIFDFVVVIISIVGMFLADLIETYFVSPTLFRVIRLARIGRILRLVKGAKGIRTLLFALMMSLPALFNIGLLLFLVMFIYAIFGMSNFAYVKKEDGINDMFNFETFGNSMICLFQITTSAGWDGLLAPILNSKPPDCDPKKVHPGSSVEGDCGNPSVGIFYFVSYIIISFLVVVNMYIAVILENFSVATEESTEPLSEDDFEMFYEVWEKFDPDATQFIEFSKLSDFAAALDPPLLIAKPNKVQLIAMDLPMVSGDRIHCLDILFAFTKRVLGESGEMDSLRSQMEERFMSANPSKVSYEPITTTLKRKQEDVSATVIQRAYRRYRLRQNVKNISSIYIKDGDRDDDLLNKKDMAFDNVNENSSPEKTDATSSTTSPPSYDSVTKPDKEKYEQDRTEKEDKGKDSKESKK

Biological target: Nav 1.7 (Homo sapiens (Human), UniProt Q15858)
Test: in-vitro Nav 1.7 PX (IC50)
Assay type: cell-based
Conditions: in-vitro Nav 1.7 PX data

- IC50: 236 nM
Substance: 1-(4′-chloro-2-fluoro-5-methoxy-3′-methyl-4-biphenylyl)-2-oxo-N-2-pyrimidinyl-1,2-dihydro-6-quinoxalinesulfonamide [Example 1002]
